# Where two headings read alike, the source gives them in different places.
# Protein sequences, listed by entry. Tags and fused reporters are not part of them. Residues count along the entry.
# UniProt P06276, 29-602: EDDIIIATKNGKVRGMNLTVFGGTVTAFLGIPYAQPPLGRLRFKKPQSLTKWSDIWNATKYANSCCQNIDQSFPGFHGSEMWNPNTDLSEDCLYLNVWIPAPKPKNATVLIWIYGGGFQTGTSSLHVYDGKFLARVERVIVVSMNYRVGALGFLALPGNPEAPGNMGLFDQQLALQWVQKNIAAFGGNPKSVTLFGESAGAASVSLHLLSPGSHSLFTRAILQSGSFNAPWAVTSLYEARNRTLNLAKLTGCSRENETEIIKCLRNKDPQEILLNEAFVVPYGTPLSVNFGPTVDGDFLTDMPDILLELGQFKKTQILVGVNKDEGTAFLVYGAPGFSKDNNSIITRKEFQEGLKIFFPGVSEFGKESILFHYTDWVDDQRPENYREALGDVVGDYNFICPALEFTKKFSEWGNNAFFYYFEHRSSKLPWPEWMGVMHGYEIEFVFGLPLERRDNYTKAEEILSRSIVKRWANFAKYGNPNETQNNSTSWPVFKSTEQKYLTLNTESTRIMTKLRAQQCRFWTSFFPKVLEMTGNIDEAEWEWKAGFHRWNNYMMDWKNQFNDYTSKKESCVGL
# Target: T1, butyrylcholinesterase (Homo sapiens, UniProt P06276)
# T1 construct: purchased Sigma-Aldrich
# Assay: Butyrylcholinesterase inhibitory activity by HPLC-DAD (Ellman reaction product TNBA)
# Assay type: biochemical
# Conditions: alkaloid standards, 0.2 U/mL enzyme, 15 min at 37 °C
# Protocol: For determination of butyrylcholinesterase inhibitory activity of alkaloid standards and plant extracts by HPLC analysis was performed on the same apparatus, column and mobile phase as determination of acetylcholinesterase inhibitory activity.
# Samples for determination of butyrylcholinesterase inhibitory activity were prepared by addition of 50 µL of butyrylthiocholine iodide, 50 µL of 5′-dithiobis-(2-nitrobenzoic acid), 50 µL of butyrylcholinesterase at concentration 2 U/mL and phosphate buffer at pH 7.8 to obtaining 500 µL of final solution. […] All components were mixed and samples were incubated for 15 min at 37 °C. Samples were filtrated by syringe filter (CHROMAFIL Xtra, PVDF-29/25 0.20 µm) and injected into HPLC system. […] All experiments were performed in triplicates.
smiles,measurement,setting,value
"CCN(C)C(=O)Oc1cccc([C@H](C)N(C)C)c1 [Rivastigmine, rivastigmine]",IC50,"pH 7.8, read-out: IC50 values Butyrylcholinesterae",8.38 ± 0.63 µM
same,IC50,"pH 7.8, read-out: IC50 values Butyrylcholinesterae (μg/mL) (converted)",8.39 µM
